The experiment concerns the target C-X-C chemokine receptor type 4 (CXCR4) (human (endogenous in H1299)) (UniProt P61073).

By UniProt entry, the sequences of proteins in these tests, tags left out. Residues count along the entry.
UniProt P61073, whole entry: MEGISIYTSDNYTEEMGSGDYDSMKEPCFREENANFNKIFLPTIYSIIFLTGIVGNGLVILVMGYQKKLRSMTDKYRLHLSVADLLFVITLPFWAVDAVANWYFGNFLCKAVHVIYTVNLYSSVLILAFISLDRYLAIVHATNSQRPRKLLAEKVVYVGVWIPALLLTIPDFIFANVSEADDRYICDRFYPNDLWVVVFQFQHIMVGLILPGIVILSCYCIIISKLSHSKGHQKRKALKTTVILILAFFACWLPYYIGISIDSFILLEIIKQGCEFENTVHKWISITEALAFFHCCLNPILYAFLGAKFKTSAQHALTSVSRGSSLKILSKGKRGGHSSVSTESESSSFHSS
UniProt P48061, 22-89: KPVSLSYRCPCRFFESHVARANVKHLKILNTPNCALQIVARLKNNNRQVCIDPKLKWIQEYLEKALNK

Regarding “Stromal cell-derived factor 1α (SDF-1α) (from UniProt P48061-2 22-89) (ligand)”, the Matrigel invasion of H1299 cells, 12 h, SDF-1α plus 2 Gy irradiation against control cells; abrogated by AMD3100 is 1.87 fold.

For the origin of these results see PMC4484427.
